Source: ChEMBL document CHEMBL3580663, “C7β-methyl analogues of the orvinols: the discovery of kappa opioid antagonists with nociceptin/orphanin FQ peptide (NOP) receptor partial agonism and low, or zero, efficacy at mu opioid receptors” (2015)

Amino acid sequences for entries named in this document (tags omitted).
UniProt P33535, whole entry: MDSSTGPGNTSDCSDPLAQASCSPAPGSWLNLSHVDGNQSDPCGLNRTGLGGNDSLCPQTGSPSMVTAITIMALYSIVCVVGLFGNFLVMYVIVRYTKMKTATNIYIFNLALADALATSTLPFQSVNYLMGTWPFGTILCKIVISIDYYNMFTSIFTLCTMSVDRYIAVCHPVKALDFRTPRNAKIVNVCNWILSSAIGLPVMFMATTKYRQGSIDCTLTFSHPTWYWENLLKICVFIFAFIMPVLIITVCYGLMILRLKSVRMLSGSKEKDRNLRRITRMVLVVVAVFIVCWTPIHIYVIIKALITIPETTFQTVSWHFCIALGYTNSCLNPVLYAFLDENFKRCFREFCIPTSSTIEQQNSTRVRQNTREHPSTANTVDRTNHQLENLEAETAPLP

Target: Mu-type opioid receptor (Rattus norvegicus) (UniProt P33535)
Assay: Agonist activity at rat mu opioid receptor expressed in rat C6 cell membranes assessed as stimulation of [35S]GTPgammaS binding at 10 uM relative to DAMGO

Structure (SMILES)	%max
CO[C@]12CC[C@@]3(C[C@]1(C)[C@H](O)c1cccs1)[C@H]1Cc4ccc(O)c5c4[C@@]3(CCN1CC1CC1)[C@H]2O5	10%
CCCSc1ccc([C@@H](O)[C@@]2(C)C[C@@]34C=C[C@]2(OC)[C@@H]2Oc5c(O)ccc6c5[C@@]23CCN(CC2CC2)[C@@H]4C6)cc1	49%
CO[C@]12C=C[C@@]3(C[C@]1(C)[C@H](O)c1ccc(F)cc1)[C@H]1Cc4ccc(O)c5c4[C@@]3(CCN1CC1CC1)[C@H]2O5	26%
CO[C@]12C=C[C@@]3(C[C@]1(C)[C@@H](O)c1ccccc1)[C@H]1Cc4ccc(O)c5c4[C@@]3(CCN1CC1CC1)[C@H]2O5	33%
CO[C@]12C=C[C@@]3(C[C@]1(C)[C@@H](O)c1cccc(C)c1)[C@H]1Cc4ccc(O)c5c4[C@@]3(CCN1CC1CC1)[C@H]2O5	40%
CO[C@]12CC[C@@]3(C[C@]1(C)[C@H](O)c1ccc(C)cc1)[C@H]1Cc4ccc(O)c5c4[C@@]3(CCN1CC1CC1)[C@H]2O5	14%
